Reference: patent publication EP4592315A1, “ANTIBODY AND USE THEREOF IN RESISTING TUMOR” (Biotheus Inc., priority 2022, dated 2024)

Assays:
MC38-h-HER2 = assay: Tumor inhibitory activity, MC38-h-HER2 subcutaneous model (Example 12); type: in vivo, h-4-1BB KI C57 mice; conditions: intraperitoneal injection, Q3d × 2, equivalent molar dose (3-3.6 mg/kg; combination 1.8+1.8 mg/kg)
Protocol: In this experiment, the antitumor activity of the multi-specific antibodies of the present invention was evaluated in a tumor model using h-4-1BB KI C57 mice that were subcutaneously inoculated with MC38-h-HER2.
First, a tumor-bearing mouse model was established through subcutaneous inoculation of MC38-h-HER2 cells. […] The changes in tumor volume and body weight of mice in each group were monitored every 3-6 days/time for a duration of 2-3 weeks. The dosage and administration schedule were outlined in Table 10.

CT26-h-HER2 = assay: Tumor inhibitory activity, CT26-h-HER2 subcutaneous model (Example 11); type: in vivo, h-4-1BB KI BALB/c mice; conditions: intraperitoneal injection, Q2d × 4, equivalent molar dose (3-3.6 mg/kg; combinations 3+3 or 1.8+1.8 mg/kg), tumor start about 180 mm^3
Protocol: In this experiment, the antitumor activity of the multi-specific antibodies of the present invention was evaluated in a tumor model using h-4-1BB KI BALB/c mice that was inoculated subcutaneously with CT26-h-HER2.
First, a tumor-bearing mouse model was established through subcutaneous inoculation of h-HER2 CT26 cells. […] The changes in tumor volume and body weight of mice in each group were monitored every 2-3 days/time for a duration of 2-3 weeks.

Enhertu: Enhertu (DS8201), comparator in the tumor models
tumor regression (in words) (MC38-h-HER2): complete tumor regression | TGI (CT26-h-HER2): 47.7%
